# scFv variants of Ab-95 (light chain) against a SARS-CoV-2 spike peptide

The measurements come from Engelhart et al. 2022 (doi:10.1038/s41597-022-01779-4) through the FLAb antibody collection.

Antigen: PDVDLGDISGINAS, a 14-residue peptide of the SARS-CoV-2 spike HR2 region.

Parent scFv Ab-95: VH joined to VL by the linker GGGGSGGGGSGGGGS. Changes lie in the light chain CDRs alone.
VH: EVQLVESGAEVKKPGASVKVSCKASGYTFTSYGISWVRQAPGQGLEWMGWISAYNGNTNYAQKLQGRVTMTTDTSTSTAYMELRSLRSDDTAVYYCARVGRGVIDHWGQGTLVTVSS
VL: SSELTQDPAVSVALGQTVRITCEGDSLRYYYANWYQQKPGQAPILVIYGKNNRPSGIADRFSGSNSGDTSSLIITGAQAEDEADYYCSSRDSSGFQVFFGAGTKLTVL

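Variants in AAYL52 differ from the parent at up to three CDR positions; double and triple changes were sampled at random. The assay is AlphaSeq: two haploid yeast populations carry antibody and antigen on their surface. The frequency of each diploid, read from paired DNA barcodes, reflects how well the two displayed proteins bind. The ratio of observed to expected reads was calibrated, replicate by replicate, on BCL2-family standards whose Kd was known from biolayer interferometry. Each pool was mated in three replicate cultures.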

The parent's light chain CDRs are EGDSLRYYYAN, GKNNRPS, SSRDSSGFQVF; each variant's own CDRs replace them letter for letter. This list gathers variants with a substitution at G24 (VL, numbered from residue 1). Kd is apparent (estimated from mating counts) and averaged on the log scale over replicates with a signal. Smaller is tighter. "no signal" means that the variant was in the library but no mating with the target was seen in any replicate; the authors take this as a sign of poor binding, and no number exists. Nonspecific signal, from three strains lacking the peptide, appeared in 28% of pairings of library AAYL52, centred on 8.2 µM (5% of these signals below 800 nM); values are not corrected for it. Also given: how often the same scFv was detected with the empty control strains.

Variant EFDSLRYYYAN | GKNNRPS | SSSDSSGFWVF gave 23 µM (2 of 3 replicates; controls 3 of 9). Variant SSDSLRYYYAG | GKNNRPS | SSRDSSGFQVF gave 840 nM (3 of 3 replicates; controls 5 of 9). For ELDSLRYIYAN | GKNNRPS | SYRDSSGFQVF, the assay gave 2.8 µM (2 of 3 replicates; controls 2 of 9). Variant EYDSLRYYYAN | GKNNRPS | LSRDSSWFQVF showed 110 nM (1 of 3 replicates; controls 1 of 9). Variant GRDSLRYYYAN | GKHNRPS | SSRDSSGFQVF gave 4.4 µM (1 of 3 replicates; controls 1 of 9). Variant ENDSLRYYYAE | GKNNRPS | SSRDSSGFQVR gave no signal (0 of 3 replicates; controls 1 of 9). For EYDNLRYYYAN | GKNNRPS | SSRDLSGFQVF, the assay gave 20 µM (1 of 3 replicates; controls 1 of 9).

Variant ERDSLRDYYAN | GKNNRPS | SSRDSSGFQVF gave 2.0 µM (3 of 3 replicates; controls 3 of 9). Variant EYDSLRYYYAN | GKNNRPS | SSRDSSPFQVF showed 9.4 µM (3 of 3 replicates; controls 1 of 9). Variant EFDSLRRYYGN | GKNNRPS | SSRDSSGFQVF showed 9.0 µM (2 of 3 replicates; controls 4 of 9). For EHDSLRYYNAN | GKNNRPS | SSRDSTGFQVF, the assay gave 28 nM (3 of 3 replicates; controls 2 of 9). Variant RQDSKRYYYAN | GKNNRPS | SSRDSSGFQVF gave 3.1 µM (3 of 3 replicates; controls 1 of 9). Variant EWDSLRYYYAN | GRNNRPS | SSFDSSGFQVF gave 42 µM (3 of 3 replicates; controls 3 of 9). For EADSLGYQYAN | GKNNRPS | SSRDSSGFQVF, the assay gave 40 nM (3 of 3 replicates; controls 6 of 9).

Variant EFDGLRYYYAN | GKNNRPS | SSRDSSGWQVF gave 1.3 µM (3 of 3 replicates; controls 1 of 9). For EIDSLRPYYAN | GKNNRPS | SSKDSSGFQVF, the assay gave 810 nM (3 of 3 replicates; controls 2 of 9). For ERISLRYYYAN | GKNNRPS | SSRDSSGFQVF, the assay gave no signal (0 of 3 replicates; controls 2 of 9). Variant ETDSLRYYYAN | GKNNRPY | SSRDSSGTQVF showed 1.2 µM (3 of 3 replicates; controls 2 of 9). With EVDSLRGYYAN | GKNNRPS | SSRDSSGFQVC the result was 4.3 µM (1 of 3 replicates; controls 5 of 9). For EEDSLRYYYAN | GKNNRPP | SSRDSSGFQVF, the assay gave 15 µM (2 of 3 replicates; controls 4 of 9). Variant ESDSLRYYYAN | GKNGRPS | SVRDSSGFQVF showed 190 nM (3 of 3 replicates; controls 1 of 9).

Variant TYDSLRYYKAN | GKNNRPS | SSRDSSGFQVF showed 1.4 µM (3 of 3 replicates; controls 1 of 9). With EMDSLRYYYAN | GKNVRPS | SSRDVSGFQVF the result was 1.4 µM (3 of 3 replicates; controls 2 of 9).

Top 3 of the variants detected in all replicates, tightest first:

| CDR-L1 | CDR-L2 | CDR-L3 | Kd | seen in | control signals |
|---|---|---|---|---|---|
| EHDSLRYYNAN | GKNNRPS | SSRDSTGFQVF | 28 nM | 3/3 | 2/9 |
| EADSLGYQYAN | GKNNRPS | SSRDSSGFQVF | 40 nM | 3/3 | 6/9 |
| ESDSLRYYYAN | GKNGRPS | SVRDSSGFQVF | 190 nM | 3/3 | 1/9 |

For reference, the parent read 200 nM as the reference entry and 180 nM as a member of this library.